# Assay results taken from patent US20110040086A1, “Novel Beta-Lactam Antibiotics, Methods for Their Production, and Their Use” (DRITTE PATENTPORTFOLIO BETEILIGUNGSGESELLSCHAFT MB, priority 2007, published 2011).
# Assay: logP value by HPLC according to Donovan et al.
# Conditions: methanol/0.1% phosphoric acid pH 2
row,Substance,logP value
1,"7-[2-(2-carbamoyl-3,6-dioxocyclohexa-1,4-dienylamino)-2-(4-hydroxyphenyl)-acetylamino]-desacetoxycephalosporanic acid [1b]",1.33
2,"7-[2-(2-ethoxycarbonyl-3,6-dioxocyclohexa-1,4-dienylamino)-2-(4-hydroxyphenyl)-acetylamino]-desacetoxycephalosporanic acid [1d]",1.76
3,"7-{2-2-(2-hydroxyethylcarbamoyl)-3,6-dioxyocyclohexa-1,4-dienylamino]-2-(4-hydroxyphenyl)-acetylamino}-desacetoxycephalosporanic acid [1a]",1.00
4,"7-{2-[2-(2-hydroxyethylcarbamoyl)-3,6-dioxocyclohexa-1,4-dienylamino]-2-phenyl-acetylamino}-desacetoxycephalosporanic acid [1e]",1.61
